Measured values from patent publication US20210015884A1 (priority 2018, published 2021).

Tested on: m^6A levels in 293 cells
Experiment: m6A levels in 293 cells transfected with oligonucleotides
Details: 100 nM oligo, 72 hrs after transfection

5′ GG/i2FA/CUGG/i2FA/CUGG/i2FA/CUGG/i2FA/CU 3′
inhibition of m^6A levels: 50%
